# Source: PubChem BioAssay
# Hits are enriched below; roughly 16% of the tested compounds scored in any of these assays.
# miR-21 reporter: raises the signal of a miR-21 reporter; HeLa miR-21 FLuc reporter, luciferase, 48 h; Potency, µM (top dose mostly 38.3 µM), for inactives: at the highest dose reporter change, positive = more light; AID 2288; 340,000 tested, under 10 active; active = well fitted rising curve with a large enough effect; inconclusive = small, poorly fitted or top-dose-only effect; inactive = no such curve, though single readings can be large or run the other way;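 note: % of control where 0% means no effect; miR-21 action dims this reporter so a rising signal means less miR-21 action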
#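 Compounds were titrated across several concentrations (up to approximately 40 uM) and incubated 48 hours with HeLa miR-21-FLuc reporter cells (miR-21 target sequence downstream of FLuc, endogenous miR-21). Readout was firefly luciferase luminescence after lytic detection reagent.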
# uPA generation: inhibitors of cell surface uPA generation | cell surface uPA generation assay, qHTS | AID 540303 | hit rate 0.31% among 330,000 | Potency, µM (series often up to 38.3 µM), for inactives: top-dose activity change, negative = inhibition, actives largely listed as inhibitors; active = well fitted inhibition curve with a large enough effect; inconclusive = small, poorly fitted or top-dose-only effect; inactive = no such curve, though single readings can be large or run the other way; tested in mouse RAW 264.7 cells; also: potency is read from the fitted curve at half-maximal effect; % is scaled to controls: 0 for no effect and ±100 for the full control effect; nearly all actives have a fitted effect of over 55% in size
# TDP1 cell noCPT: qHTS for Inhibitors of human tyrosyl-DNA phosphodiesterase 1 (TDP1): qHTS in cells in absence of CPT; Potency, µM (doses to about 46.2 µM), inactives show at the top dose activity change, negative = growth inhibition, most hits filed as inhibitors; DT40 Tdp1-/- hTDP1 cells, no CPT, ATP luminescence, 48 h; AID 686978, 2013; hit rate 15% among 420,000; also: potency is read from the fitted curve at half-maximal effect; % is scaled to controls: 0 for no effect and ±100 for the full control effect; nearly all actives have a fitted effect of over 55% in size
#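 No-CPT arm: Tdp1-/-;hTDP1 DT40 cells (400/well) plus compounds, incubated ≥48 hr at 37 °C. Readout CellTiter-Glo luminescence.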
# TDP1 inh: inhibitors of human tyrosyl-DNA phosphodiesterase TDP1; Potency, µM (top dose mostly 130 µM), inactives show top-dose activity change, negative = inhibition, hits mostly inhibitors; AID 485290; hit rate 0.28% among 350,000; recombinant TDP1, AlphaScreen DNA substrate cleavage; also: potency is read from the fitted curve at half-maximal effect; % is scaled to controls: 0 for no effect and ±100 for the full control effect; nearly all actives have a fitted effect of over 40% in size
#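 Recombinant human Tdp1 (E. coli-expressed, 1 nM final) preincubated with compounds 15 min at room temperature, then 5'-biotin/3'-phosphotyrosine-FITC DNA substrate (15 nM final) added for 5 min. AlphaScreen beads (10 ug/ml final) added 10 min; cleavage lowers signal.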
# TDP1 cell CPT: growth inhibition of DT40 Tdp1-/-;hTDP1 cells with camptothecin (screen for TDP1 inhibitors) | chicken DT40 Tdp1-/-;hTDP1 cells + 20 nM CPT, ATP luminescence, 48 h | hit rate 12% among 420,000 | Potency, µM (titrated, usually from 46.2 µM), for inactives: at the top dose activity change, negative = growth inhibition, actives largely listed as inhibitors | AID 686979; also: potency is read from the fitted curve at half-maximal effect; % is scaled to controls: 0 for no effect and ±100 for the full control effect; nearly all actives have a fitted effect of over 55% in size
#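 Chicken DT40 Tdp1-/- cells stably complemented with human TDP1 were seeded at 400 cells/well in medium containing 20 nM camptothecin, exposed to pin-transferred compounds, and grown at 37 °C for at least 48 hr. Viability was read as ATP luminescence.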
# The depositor's hits bear a star; u = inconclusive; x = no result given; [ ] = remark or other dose. Unless noted, calls follow the shape of the dose curve; as a rule, active = well fitted curve in the direction sought with a large enough effect; inconclusive = small, poorly fitted or top-dose-only effect, or another doubt; inactive = no such curve, though single readings can be large; an effect the other way counts as inactive or inconclusive.
nr | SMILES | TDP1 cell noCPT | uPA generation | miR-21 reporter | TDP1 inh | TDP1 cell CPT
1 | Cn1c(NC(=O)c2ccc(S(=O)(=O)N3CCOCC3)cc2)cc(=O)n(C)c1=O | 1.8% | -1.1% | -4.9% | 2.7% | 4.8%
2 | COc1ccc(NC(=O)CN(c2ccccc2F)S(=O)(=O)c2ccc(C)cc2)cc1 | u | -3.0% | 4.8% | x | -6.1%
3 | Cc1cccc(CN2CCN(CC(=O)Nc3c(C)cccc3C)S2(=O)=O)c1 | 16.4µM* | x | 16.0% | -5.6% | u
4 | Cc1ccc(C)c(NC(=O)CN2CCCN(Cc3cccc(Cl)c3)S2(=O)=O)c1 | u | x | -1.2% | 5.6% | u
5 | CCc1cccc(NC(=O)CN2CCCN(Cc3cccc(C)c3)S2(=O)=O)c1 | 29.1µM* | x | 0.2% | 1.2% | u
6 | COc1cc(C(=O)Nn2c(C)nc3ccccc3c2=O)cc(OC)c1OC | -28.9% | -5.1% | 8.1% | x | -2.7%
7 | CN(C(=O)CSc1nnc(-c2ccncc2)n1C)C1CCS(=O)(=O)C1 (stereo unspecified) | -23.4% | 2.8% | -0.2% | 1.0% | 4.1%
8 | Cn1c2c(c(=O)n(C)c1=O)C(CC(=O)Nc1ccc(F)cc1)C(=O)N2 (stereo unspecified) | 9.5% | 4.4% | 0.5% | 3.7% | 2.0%
9 | NC(=S)NN=C1c2ccccc2-c2ccccc21 | 2.91µM* | 14.2% | 22.7% | x | 5.17µM*
10 | O=C(NN=C1c2ccccc2-c2ccccc21)c1ccccc1 | u | -15.8% | -7.4% | 20µM* | u
11 | O=C(NN=C1c2ccccc2-c2ccccc21)c1ccccc1Br | -16.8% | x | -2.9% | -2.0% | -23.8%
12 | CN(C)c1nc(CN2CCCCC2c2cccnc2)nc2ccccc12 (stereo unspecified) | -0.2% | x | x | x | -1.7%
13 | COc1ccc(Cl)cc1NC(=O)COC(=O)CCCC1=NS(=O)(=O)c2ccccc2N1 | 28.0% | 1.9% | -0.6% | 1.2% | 4.5%
14 | CCOC(=O)c1ccccc1NC(=O)COC(=O)CC(C)(C)CC1=NS(=O)(=O)c2ccccc2N1 | u | x | u | 1.5% | u
15 | COc1ccccc1NC(=O)COC(=O)CC(C)(C)CC1=NS(=O)(=O)c2ccccc2N1 | u | -3.7% | 13.0% | 1.6% | 23.1µM*
16 | CC(C)(CC(=O)OCC(=O)Nc1ccccc1F)CC1=NS(=O)(=O)c2ccccc2N1 | 13µM* | -0.2% | 10.4% | 0.9% | 23.1µM*
17 | CN1CCOc2ccc(S(=O)(=O)NCCc3ccc(Cl)cc3)cc21 | -6.2% | 4.5% | -8.2% | 7.3% | -13.7%
18 | Cn1c(=O)c(=O)n(C)c2cc([N+](=O)[O-])c([N+](=O)[O-])cc21 | 18.4µM* | -20.5% | 25.3% | -2.5% | 14.6µM*
19 | Cc1nonc1N1CCN(Cc2cn[nH]c2-c2ccc3c(c2)OCO3)CC1 | -4.8% | -0.7% | -3.8% | 2.7% | 1.9%
20 | COc1ccc([N+](=O)[O-])cc1N(CC(O)CN1CCCCC1)S(=O)(=O)c1ccccc1 (stereo unspecified) | 1.1% | -2.6% | 0.6% | -2.5% | 6.4%
21 | Cc1cccc(OCC(O)Cn2c(=N)n(Cc3ccccc3)c3ccccc32)c1 (stereo unspecified) | 20.6µM* | -13.2% | u | 2.6% | u
22 | COc1ccc(OCC(O)Cn2c(=N)n(Cc3ccccc3)c3ccccc32)cc1 (stereo unspecified) | 6.51µM* | x | 24.7% | 5.2% | u
23 | CCn1c(=N)n(CC(O)COc2ccccc2)c2ccccc21 (stereo unspecified) | x | x | 0.3% | 1.9% | x
24 | COc1ccc(C(O)c2cnc(C)n2Cc2ccccc2)cc1 (stereo unspecified) | 18.4µM* | x | x | x | u

# Complete entries, quoted from the list:
# `Cc1cccc(OCC(O)Cn2c(=N)n(Cc3ccccc3)c3ccccc32)c1` (stereo unspecified) across the screens: TDP1 cell noCPT = 20.6µM*; uPA generation = -13.2%; miR-21 reporter = u; TDP1 inh = 2.6%; TDP1 cell CPT = u
# `COc1ccc(Cl)cc1NC(=O)COC(=O)CCCC1=NS(=O)(=O)c2ccccc2N1` across the screens: TDP1 cell noCPT = 28.0%; uPA generation = 1.9%; miR-21 reporter = -0.6%; TDP1 inh = 1.2%; TDP1 cell CPT = 4.5%

# The list continues.
nr | SMILES | TDP1 cell noCPT | uPA generation | miR-21 reporter | TDP1 inh | TDP1 cell CPT
25 | N=c1n(Cc2ccccc2)c2ccccc2n1CC(O)COc1ccc(Cl)cc1Cl (stereo unspecified) | 7.31µM* | -3.0% | u | 4.8% | 20.6µM*
26 | OC(c1ccccc1)c1nc(-c2ccc3c(c2)OCO3)cs1 (stereo unspecified) | -23.3% | x | x | x | -23.0%
27 | Cc1[nH]nc2c1/C(=N/O)CC(c1ccccc1)C2 (stereo unspecified) | 3.9% | 1.5% | -16.7% | 5.8% | -4.7%
28 | OC(COc1ccc(Cl)cc1)CN1CCN(c2ccccc2)CC1 (stereo unspecified) | -21.0% | 14.3% | 1.6% | x | -29.2%
29 | Cc1cccc(OCC(O)Cn2c(=N)n(CCN3CCCCC3)c3ccccc32)c1 (stereo unspecified) | 13µM* | x | 9.3% | 2.9% | 11.6µM*
30 | N=c1n(Cc2ccc(Cl)cc2)c2ccccc2n1CC(O)COc1ccccc1 (stereo unspecified) | 8.2µM* | -4.3% | u | 3.7% | u
31 | Cc1cccc(OCC(O)CN2CCNCC2)c1 (stereo unspecified) | 9.0% | 0.4% | 0.6% | 6.8% | -22.4%
32 | O=C(C1CCCN(C2CC(=O)N(c3ccc(Cl)cc3)C2=O)C1)N1CCCC1 (stereo unspecified) | -10.6% | -2.7% | -2.2% | 2.7% | -15.7%
33 | O=C(NCc1ccccc1)C(c1ccccc1F)n1c(=O)c(-c2ccccc2)nc2ccccc21 (stereo unspecified) | u | x | x | x | 16.4µM*
34 | CCCCCNC(=O)C(c1cc2ccccc2o1)n1c(=O)c(-c2ccco2)nc2ccccc21 (stereo unspecified) | 16.4µM* | x | x | x | u
35 | O=C(NCc1ccccc1)C(c1cc2ccccc2o1)n1c(=O)c(-c2ccccc2)nc2ccccc21 (stereo unspecified) | 13µM* | x | x | x | 14.6µM*
36 | O=C(NCc1ccccc1)C(c1ccncc1)n1c(=O)c(-c2ccccc2)nc2ccccc21 (stereo unspecified) | u | x | x | x | -21.3%
37 | CC(C)(C)NC(=O)C(c1cc2ccccc2o1)n1c(-c2ccc(-c3ccccc3)cc2)nc2ccccc21 (stereo unspecified) | u | x | x | x | 16.4µM*
38 | CC(=O)C1=C(C)Nc2ncnn2C1c1cccc(Br)c1 (stereo unspecified) | -26.1% | 6.9% | -6.5% | x | 6.2%
39 | COc1cc(OC)cc(C(=O)N[C@H](C(=O)OCC(=O)N2CCc3ccccc32)C(C)C)c1 | -28.2% | 3.2% | 0.1% | -5.9% | -20.7%
40 | O=C(NCc1ccccc1)C(c1ccccc1F)n1c(=O)c(-c2ccco2)nc2ccccc21 (stereo unspecified) | 20.6µM* | x | x | x | u
41 | Cc1cccc(C)c1NC(=O)C(c1ccccc1F)n1c(=O)c(-c2ccccc2)nc2ccccc21 (stereo unspecified) | 20.6µM* | x | x | x | u
42 | NS(=O)(=O)c1ccc(CCNC(=O)C2(S(=O)(=O)c3ccc(Cl)cc3)CC2)cc1 | -24.4% | -1.0% | -6.5% | x | 19.9%
43 | COCc1nc2sc(C)c(C)c2c(=O)[nH]1 | -11.6% | 0.9% | -10.9% | -6.2%[56.1 µM] | u

# Quoted from above, nos. 37 to 38
nr | SMILES | TDP1 cell noCPT | uPA generation | miR-21 reporter | TDP1 inh | TDP1 cell CPT
37 | CC(C)(C)NC(=O)C(c1cc2ccccc2o1)n1c(-c2ccc(-c3ccccc3)cc2)nc2ccccc21 (stereo unspecified) | u | x | x | x | 16.4µM*
38 | CC(=O)C1=C(C)Nc2ncnn2C1c1cccc(Br)c1 (stereo unspecified) | -26.1% | 6.9% | -6.5% | x | 6.2%
